The assay has as its target Voltage-gated inwardly rectifying potassium channel KCNH2 (Homo sapiens, UniProt Q12809). The assay is described as follows: Inhibition of human ERG channel.

Sequences of proteins named here, by UniProt entry; tags and fusion partners are left off. A change or cut given only in a name is not applied to a line headed by its entry.
UniProt Q12809: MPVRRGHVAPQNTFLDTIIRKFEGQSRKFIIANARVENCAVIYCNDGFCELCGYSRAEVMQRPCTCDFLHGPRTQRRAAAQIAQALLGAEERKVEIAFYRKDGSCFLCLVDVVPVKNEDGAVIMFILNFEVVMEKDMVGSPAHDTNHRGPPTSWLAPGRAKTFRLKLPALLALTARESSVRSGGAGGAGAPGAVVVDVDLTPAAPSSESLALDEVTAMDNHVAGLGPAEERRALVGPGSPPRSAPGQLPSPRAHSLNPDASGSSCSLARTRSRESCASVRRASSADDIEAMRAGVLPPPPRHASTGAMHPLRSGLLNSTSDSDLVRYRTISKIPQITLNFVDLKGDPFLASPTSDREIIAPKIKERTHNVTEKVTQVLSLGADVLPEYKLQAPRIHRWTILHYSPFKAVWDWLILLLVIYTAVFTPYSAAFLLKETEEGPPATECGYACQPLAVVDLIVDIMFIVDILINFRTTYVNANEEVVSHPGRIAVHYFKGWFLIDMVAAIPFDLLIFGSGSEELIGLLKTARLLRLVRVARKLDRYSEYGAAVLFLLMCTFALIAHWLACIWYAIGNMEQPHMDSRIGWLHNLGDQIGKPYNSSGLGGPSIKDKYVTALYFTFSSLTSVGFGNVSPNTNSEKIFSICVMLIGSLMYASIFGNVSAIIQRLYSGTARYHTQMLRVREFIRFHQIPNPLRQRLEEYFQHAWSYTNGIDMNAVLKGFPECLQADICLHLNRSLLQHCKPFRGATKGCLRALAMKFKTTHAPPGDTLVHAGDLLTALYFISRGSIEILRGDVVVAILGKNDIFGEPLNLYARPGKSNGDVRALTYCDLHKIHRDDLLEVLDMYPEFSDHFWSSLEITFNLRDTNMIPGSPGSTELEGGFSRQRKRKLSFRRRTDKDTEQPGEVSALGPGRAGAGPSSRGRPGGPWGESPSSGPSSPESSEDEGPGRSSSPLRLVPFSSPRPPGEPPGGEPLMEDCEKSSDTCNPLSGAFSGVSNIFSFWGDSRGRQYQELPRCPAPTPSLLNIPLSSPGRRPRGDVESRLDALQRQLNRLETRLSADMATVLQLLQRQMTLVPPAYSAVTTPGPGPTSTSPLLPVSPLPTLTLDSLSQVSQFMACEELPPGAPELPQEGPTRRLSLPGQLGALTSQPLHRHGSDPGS

`O=C1Cc2cc(CCN3CCN(c4nsc5ccccc45)CC3)c(Cl)cc2N1` [ZIPRASIDONE] gave a pIC50 of 6.903.

The pIC50 is −log10 of the IC50, conventionally taken in molar units.
